Data published in PMC7763843, “Cytochrome P450 Expression and Chemical Metabolic Activity before Full Liver Development in Zebrafish” (Pharmaceuticals, 2020).
Counter-ions that a name gives are not always drawn.

Columns and labels:
[1] = cited from earlier work
cyp2y3 mRNA = settings: 55 hpf larvae; exposure from 30 hpf; 100 µM rifampicin or phenobarbital
Description: (§1) Embryos were dechorionized, except in the case of those exposed to TCDD due to high transparency. […] 1,7-Dimethylxanthine, 4′-OHDF, 5-OHDF, and 6β-hydroxytestosterone were obtained from Sigma-Aldrich. DMSO was purchased from Nacalai Tesque (Kyoto, Japan).
Whole-mount in situ hybridization was performed as described previously. Paraformaldehyde-fixed embryos were hybridized with digoxigenin-incorporated antisense RNA probes of CYP subtypes at 65 °C overnight (DIG (digoxigenin) RNA Labeling Kit, Sigma-Aldrich). To obtain the CYP probes, CYP DNAs were amplified by PCR reaction with KOD FX Neo enzyme solution (Toyobo) with the primer sets listed in Table S2. This was followed by subcloning to pTAC2 TA vector (BioDynamics, Tokyo, Japan) and in vitro transcription with SP6 RNA polymerase (New England Biolabs, Ipswich, MA, USA). Following hybridization and washing, the embryos were incubated with anti-DIG antibody conjugated with alkaline phosphatase (Sigma-Aldrich) at 4 °C overnight. The color reaction was performed by incubation in BM Purple substrate or Fast Red (Sigma-Aldrich).

[2] = system: cyp2n13, 2r1, 2y3, and 3a65; test: qPCR of CYP subtypes in 55 hpf larvae after inducer exposure; settings: 100 µM
Excerpt: as §1

SMILES	Detection of the two metabolites of diclofenac ([1]; adult zebrafish liver microsomes, 1 h exposure)	Detection of the two metabolites of diclofenac, batches positive ([1]; microsomes of whole zebrafish larvae, only at 96 hpf)	cyp2y3 mRNA by in situ hybridization (liver and intestine locations) (cyp2y3 mRNA)	Significant induction of cyp2n13, 2r1, 2y3, and 3a65 by qPCR [2]
O=C(O)Cc1ccccc1Nc1c(Cl)cccc1Cl [diclofenac, diclofenac sodium salt]	detected	two of five batches		
CO[C@H]1/C=C/O[C@@]2(C)Oc3c(C)c(O)c4c(O)c(c(/C=N/N5CCN(C)CC5)c(O)c4c3C2=O)NC(=O)/C(C)=C\C=C\[C@H](C)[C@H](O)[C@@H](C)[C@@H](O)[C@@H](C)[C@H](OC(C)=O)[C@@H]1C [rifampicin]			detectable	not recognized
